# Measurements as given in US11123353B2, “Uses of ergosterol combined with gefitinib, preparation methods of liposome and freeze-dried powder thereof” (Zhejiang Chinese Medical University, priority 2019, dated 2021).
# How the values were obtained:
# [1] = test system: AKT, p-AKT, EGFR, and p-EGFR in A549 cells; test: Western-blots of AKT, p-AKT, EGFR, p-EGFR, A549 cells; assay type: cell-based, human; details: A549, 48 h, compared with the blank control group and the ERG group
# [2] = test system: AKT, p-AKT, EGFR, and p-EGFR in PC-9 cells; test: Western-blots of AKT, p-AKT, EGFR, p-EGFR, PC-9 cells; assay type: cell-based, human; details: PC-9, 48 h
# PC-9/GR and PC-9 cells = test: Resistance index of GEF-resistant strain PC-9/GR (MTT); assay type: cell-based, human; details: MTT 24 h, PC-9/GR versus PC-9
# Experimental: PC-9/GR^[50] was constructed by an intermittent action method of stepwise increasing GEF concentration as follows: the PC-9 cells in logarithmic growth phase were inoculated into a 1640 medium containing 10% FBS, a GEF solution having a concentration of 10 μM was used to act for 48 h and then the drug-containing medium was discarded, and the culture was continued after a fresh medium was added. After waiting for PC-9 to resume the normal growth rate, the cells were treated with the GEF with a concentration of 10 μM for 48 h after digestion and passage.
# The PC-9/GR and PC-9 cells in logarithmic growth phase were taken, and adjusted to 5×10^4·mL^−1 after trypsinization. 100 μL of cells was added to each well, inoculated in a 96-well culture plate and cultured in a 37° C. 5% CO2 incubator. When the cells were grown to about 80%, GEF was respectively added according to the concentration gradient. 5 replicate wells were arranged in each group, and a normal control group was set at the same time. MTT assay was performed 24 hours after administration. For the specific MTT operation, please refer to “(IV) Research on inhibitory effects of ERG combined with GEF on proliferation of A549 and PC-9 cells (MTT test)” in Part I in details. […] The PC-9/GR cell resistance index was 13.90, which was analyzed by SPSS17.0 software, and the cells were highly resistant to drugs.
# [3] = test system: PC-9/GR lung cancer xenografts; test: Preliminary pharmacodynamic test in PC-9/GR tumor-bearing nude mice; assay type: in vivo, BABL/C nude mouse; details: compared with the normal control group and the model control group
smiles,measurement,setting,value
"COc1cc2ncnc(Nc3ccc(F)c(Cl)c3)c2cc1OCCCN1CCOCC1 [GEF, gefitinib]",p-AKT/AKT level,[1],significantly decreased
same,p-EGFR/EGFR level,[1],significantly decreased
same,p-AKT/AKT level,[2]; compared with the ERG group,significantly decreased
same,p-EGFR/EGFR level,[2]; compared with the ERG group,significantly decreased
same,p-EGFR/EGFR level,[2]; compared with the blank control group,significantly decreased
same,PC-9/GR cell resistance index,PC-9/GR and PC-9 cells,13.90
same,spleen index,[3],decreased
